# Sampled rows, rich in hits. Any-hit rate of the full collection: about 16%.
# DT40 TDP1 no CPT: qHTS for Inhibitors of human tyrosyl-DNA phosphodiesterase 1 (TDP1): qHTS in cells in absence of CPT; DT40 Tdp1-/- hTDP1 cells, no CPT, ATP luminescence, 48 h; Potency, µM (series often up to 46.2 µM), hits mostly inhibitors; hit rate 15% among 420,000; note: nearly all actives have a fitted effect of over 55% in size
#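 Readout: luminescence from CellTiter-Glo after 30 min in the dark at RT. Cells: DT40 Tdp1-/- with stable hTDP1, 400/well. Exposure: compounds alone, ≥48 hr, 37 °C.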
# TDP1 inh: blocks human tyrosyl-DNA phosphodiesterase 1 | Q9NUW8 | recombinant TDP1, AlphaScreen DNA substrate cleavage | Potency, µM (titrated, usually from 130 µM), usual class: inhibitors | hit rate 0.28% among 350,000; note: nearly all actives have a fitted effect of over 40% in size
#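 Compounds were preincubated with Tdp1 (1 nM final) for 15 min at room temperature before substrate (15 nM final) started a 5 min reaction; beads (10 ug/ml final) were then added for 10 min before AlphaScreen detection.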
# miR-21 reporter: miR-21 reporter, rising signal; HeLa miR-21 FLuc reporter, luciferase, 48 h; Potency, µM (titrated, usually from 38.3 µM); 340,000 tested, under 10 active; AID 2288; active = well fitted rising curve with a large enough effect; inconclusive = small, poorly fitted or top-dose-only effect; inactive = no such curve, though single readings can be large or run the other way;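 also: miR-21 action dims this reporter so a rising signal means less miR-21 action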
#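 Compounds were titrated across several concentrations (up to approximately 40 uM) and incubated 48 hours with HeLa miR-21-FLuc reporter cells (miR-21 target sequence downstream of FLuc, endogenous miR-21). Readout was firefly luciferase luminescence after lytic detection reagent.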
# DT40 TDP1 CPT: DT40-hTDP1 cell growth loss with CPT; chicken DT40 Tdp1-/-;hTDP1 cells + 20 nM CPT, ATP luminescence, 48 h; Potency, µM (series often up to 46.2 µM), most hits filed as inhibitors; hit rate 12% among 420,000; AID 686979; note: nearly all actives have a fitted effect of over 55% in size
#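 Cell growth measured by CellTiter-Glo luminescence after a minimum 48 h, 37 C compound exposure with 20 nM CPT in Tdp1-knockout DT40 cells stably expressing hTDP1, seeded 400/well; qHTS titration format.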
# uPA surface inh: blocks generation of uPA at the cell surface; cell surface uPA generation assay, qHTS; Potency, µM (top dose mostly 38.3 µM), usual class: inhibitors; hit rate 0.31% among 330,000; AID 540303; active = well fitted inhibition curve with a large enough effect; inconclusive = small, poorly fitted or top-dose-only effect; inactive = no such curve, though single readings can be large or run the other way; tested in mouse RAW 264.7 cells; note: nearly all actives have a fitted effect of over 55% in size
# A number is an active result; i = inactive; ? = inconclusive; nt = not tested or not shown; [ ] = another dose, or the depositor's remark. Unless noted, calls come from the whole dose curve; as a rule, active = well fitted curve in the direction sought with a large enough effect; inconclusive = small, poorly fitted or top-dose-only effect, or another doubt; inactive = no such curve, though single readings can be large; an effect the other way counts as inactive or inconclusive.
SMILES,DT40 TDP1 no CPT,TDP1 inh,miR-21 reporter,DT40 TDP1 CPT,uPA surface inh
CC(OC(=O)C1CCN(S(=O)(=O)c2ccc(C(C)(C)C)cc2)CC1)C(=O)N(C)C1CCCCC1 (stereo unspecified),?,nt,nt,?,i
COc1ccc(NC(=S)NCC2CCCO2)c(OC)c1 (stereo unspecified),i,i,i,i,i
CCOc1ccc(OCC)c(NC(=O)C2CCCN(S(=O)(=O)c3cccs3)C2)c1 (stereo unspecified),16µM,i,i,?,i
COc1ccc2nc(NC(=O)c3ccc(S(=O)(=O)N4CCCC(C)C4)cc3)sc2c1 (stereo unspecified),12µM,i,i,16µM,nt
Cc1ccc2nc(NC(=O)C3CCN(S(=O)(=O)c4cnc[nH]4)CC3)sc2c1,16µM,i,i,?,i
COc1ccc2nc(NC(=O)C3CCN(S(=O)(=O)c4cccs4)CC3)sc2c1,29µM,i,?,23µM,i
COc1ccc2nc(NC(=O)C3CCN(S(=O)(=O)c4cnc[nH]4)CC3)sc2c1,i,i,i,i,i
COc1cccc(CN2C(=O)C3(SCC(=O)N3c3cc(C)cc(C)c3)c3ccccc32)c1 (stereo unspecified),nt,i,i,nt,nt
COc1ccc2[nH]c(C)c(C(=O)CN3CCN(C(=O)c4ccco4)CC3)c2c1,i,i,i,i,i
Cc1ccc(-c2cc(C(=O)N/N=C/c3ccc(Cl)cc3)n[nH]2)o1,?,i,i,?,i
COc1ccc(C(=O)NCCc2cc3ccc(C)c(C)c3[nH]c2=O)cc1OC,?,i,i,?,i
COCCNc1c(-c2cc3ccc(C)c(C)c3[nH]c2=O)nc2ccccn12,18µM,i,i,?,i
Cc1cc(C(C)(C)C)oc1C(=O)NCCCNC(=O)c1oc(C(C)(C)C)cc1C,i,i,i,?,i
CC(C)=CCCC1=CCC(/C(C)=N/NC(N)=O)CC1 (stereo unspecified),i,i,i,i,i
COc1ccc(NC(=O)CN(C)C(=O)c2cc(-c3ccc(Cl)cc3)nc3ccccc23)cc1,21µM,nt,nt,?,i
CCN(CC(=O)Nc1ccc(NC(C)=O)cc1)C(=O)c1ccc2ccccc2c1,i,nt,nt,i,i
CCOc1ccc(NC(=O)CN(C)C(=O)c2cc(-c3ccc(OC)cc3)nc3ccccc23)cc1OCC,15µM,i[0.505 µM],nt,?,i
CCN(CC(=O)Nc1ccc(NC(C)=O)cc1)C(=O)c1cc(-c2ccccc2Cl)nc2ccccc12,15µM,nt,nt,?,i
CCc1ccccc1NC(=O)Nc1nnc(N2CCCC2)s1,i,i,i,i,nt
CC(=O)n1cc(/C=N/NC(=O)c2cccc(O)c2)c2ccccc21,i,nt,i,i,i
Fc1ccc(/C=C2\CCCC3=C2Nc2ncnn2C3c2ccc(F)cc2)cc1 (stereo unspecified),18µM,i,?,15µM,i
Cc1nn(Cc2ccc(F)cc2)c(C)c1NC(=O)c1cc(-c2ccc3c(c2)OCO3)on1,13µM,i,i,?,nt
CCc1ccc(-c2cc(C(F)(F)F)n3nc(C(=O)Nc4c(C)nn(Cc5ccc(F)cc5)c4C)cc3n2)s1,23µM,i,i,?,nt
Cc1ccc(Cn2nc(C)c(NC(=O)c3cc(-c4ccc5c(c4)OCO5)on3)c2C)cc1,?,i,i,16µM,nt
COc1ccc(-c2cc(C(=O)Nc3c(C)nn(Cc4ccc(C)cc4)c3C)no2)cc1OC,i,i,i,?,nt
SMILES,DT40 TDP1 no CPT,TDP1 inh,miR-21 reporter,DT40 TDP1 CPT,uPA surface inh
Cc1nnc(NC(=O)CN2CC(C)OC(C)C2)s1 (stereo unspecified),i,i,i,i,i
O=C(/C=C/c1cccs1)Nc1cccc(NC(=O)/C=C/c2cccs2)n1,8.2µM,i,i,12µM,i
Cc1cc(C)c(-c2csc(NC(=O)/C=C/c3cccs3)n2)c(C)c1,18µM,i,?,?,i
O=C(/C=C/c1cccs1)Nc1ccc(Br)cn1,0.33µM,i,i,0.26µM,i
Cc1cc(C)nc(NC(=O)/C=C/c2cccs2)c1,i,i,i,i,i
CCN(CC)C(=O)C1=CC(c2ccc3c(c2)OCO3)=NS(=O)(=O)N1C,i,i,i,i,nt
O=C(CCN1CCN(c2ccccc2)CC1)NNC(=O)c1ccccc1,i,nt,nt,i,nt

# Source: PubChem BioAssay (National Center for Advancing Translational Sciences (NCATS))
